Test results as given in patent US6515005B2, “Substituted azole derivatives as inhibitors of corticotropin releasing factor” (Bristol-Myers Squibb Company, priority 2000, dated 2003).

Protein sequences, listed by entry. Tags and fused reporters are not part of them. Residues count along the entry.
UniProt P34998, 24-415 limits assumed: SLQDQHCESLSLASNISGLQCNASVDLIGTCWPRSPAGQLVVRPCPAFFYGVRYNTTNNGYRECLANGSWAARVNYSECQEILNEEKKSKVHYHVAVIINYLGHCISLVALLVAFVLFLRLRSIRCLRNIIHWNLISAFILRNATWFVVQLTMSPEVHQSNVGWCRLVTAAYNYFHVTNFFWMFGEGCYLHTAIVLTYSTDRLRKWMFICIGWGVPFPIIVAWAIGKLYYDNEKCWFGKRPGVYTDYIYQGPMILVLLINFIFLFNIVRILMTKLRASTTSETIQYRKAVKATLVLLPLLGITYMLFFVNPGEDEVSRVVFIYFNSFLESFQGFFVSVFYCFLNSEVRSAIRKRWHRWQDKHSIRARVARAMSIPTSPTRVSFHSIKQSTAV

Biological target: CRF1 receptor (Homo sapiens, UniProt P34998)
Test: CRF1 receptor radioligand binding assay ([125I]-oCRF competition, IMR-32 cell membranes)
Conditions: [125I]-oCRF (100 pM)
[1] = Second Set of Examples (Table 2)
[2] = Additional Compounds from Second Set of Examples (Table 3)

| IC50 [1] [nM] | IC50 [2] [nM] | Compound |
| --- | --- | --- |
| 68 | – | C=CCN(Cc1sc(Nc2c(Cl)cc(Cl)cc2Cl)nc1C(F)(F)F)CC1CC1 |
| 111 | – | FC(F)(F)CN(Cc1ccc(Cl)cc1)Cc1sc(Nc2c(Cl)cc(Cl)cc2Cl)nc1C(F)(F)F |
| – | 79 | CCCN(Cc1sc(N(CC)c2ccc(C(C)C)cc2Br)nc1C(F)(F)F)CC1CC1 |
| – | 94 | CCCN(Cc1sc(N(CC)c2c(C)cc(C)cc2Cl)nc1C(F)(F)F)CC1CC1 |
| 78 | – | CCCN(Cc1ccc(F)c(F)c1)Cc1sc(Nc2c(Cl)cc(Cl)cc2Cl)nc1C(F)(F)F |
